Measurements as given in PubChem BioAssay AID1511 (Johns Hopkins Ion Channel Center, 2009).
The list shows a part of the results, in another mix than the full data. Calls of active or inactive are those of the source.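 Rule for the calls: active = activation above the mean of controls blocked by dofetilide plus 5 SD; inactive = the rest.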

Amino acid sequences for entries named in this document (tags omitted).
UniProt Q12809, whole entry: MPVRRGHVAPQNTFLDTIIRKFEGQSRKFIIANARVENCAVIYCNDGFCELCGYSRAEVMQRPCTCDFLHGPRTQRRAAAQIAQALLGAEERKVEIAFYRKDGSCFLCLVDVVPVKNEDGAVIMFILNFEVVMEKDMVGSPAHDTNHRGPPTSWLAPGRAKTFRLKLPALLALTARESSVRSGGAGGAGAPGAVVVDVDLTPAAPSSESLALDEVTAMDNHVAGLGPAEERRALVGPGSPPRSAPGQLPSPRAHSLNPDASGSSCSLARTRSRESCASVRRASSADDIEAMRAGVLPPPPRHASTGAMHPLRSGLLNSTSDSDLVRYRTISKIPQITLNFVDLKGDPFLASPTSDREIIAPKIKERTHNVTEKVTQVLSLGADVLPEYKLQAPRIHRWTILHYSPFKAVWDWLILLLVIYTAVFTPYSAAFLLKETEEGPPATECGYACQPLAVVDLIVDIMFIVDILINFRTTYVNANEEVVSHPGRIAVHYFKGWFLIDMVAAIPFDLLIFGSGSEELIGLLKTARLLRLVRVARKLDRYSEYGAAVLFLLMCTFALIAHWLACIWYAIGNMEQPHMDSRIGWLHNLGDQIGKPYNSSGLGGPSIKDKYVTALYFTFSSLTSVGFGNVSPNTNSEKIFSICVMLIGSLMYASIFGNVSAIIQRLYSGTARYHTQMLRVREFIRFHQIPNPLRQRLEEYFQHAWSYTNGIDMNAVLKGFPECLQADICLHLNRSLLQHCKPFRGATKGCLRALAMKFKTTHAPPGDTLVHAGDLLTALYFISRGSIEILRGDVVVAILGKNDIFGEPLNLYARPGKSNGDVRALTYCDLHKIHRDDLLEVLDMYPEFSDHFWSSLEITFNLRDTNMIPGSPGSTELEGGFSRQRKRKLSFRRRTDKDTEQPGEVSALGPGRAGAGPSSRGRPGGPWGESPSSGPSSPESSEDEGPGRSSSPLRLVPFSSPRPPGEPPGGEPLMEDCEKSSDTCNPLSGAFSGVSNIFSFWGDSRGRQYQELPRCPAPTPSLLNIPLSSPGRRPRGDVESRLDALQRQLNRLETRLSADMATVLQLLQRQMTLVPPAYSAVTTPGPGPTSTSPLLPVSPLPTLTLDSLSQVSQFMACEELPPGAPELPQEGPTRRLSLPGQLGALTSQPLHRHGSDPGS

These compounds were tested against Voltage-gated inwardly rectifying potassium channel KCNH2 (Homo sapiens) (UniProt Q12809) (assay: PubChem AID 1511). Conditions: CHO-hERG, FluxOR thallium flux, dofetilide IC70 present; at 10 µM; hits give high values.
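Note: thallium influx through hERG after potassium depolarization seen as dye fluorescence rise.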

SMILES	activation (rescue from dofetilide block), less the hit threshold
COP1(=S)c2c(C)nn(CCC#N)c2N=C(c2ccc(F)cc2)N1C (stereo unspecified)	inactive: -2.4%
